High-throughput results from PubChem BioAssay.
Only some compounds are listed: those with a hit (about 3.7% of all), similar ones and a draw of the others.
ClpP mod: qHTS Assay for Activators of ClpP; purified B. subtilis ClpP, FRET peptide cleavage, 20 min; Potency, µM (doses to about 57.5 µM); actives 1.9% (n = 340,000); AID 651965, 2013; active = well fitted falling curve with a large enough effect; inconclusive = small, poorly fitted or top-dose-only effect; inactive = no such curve, though single readings can be large or run the other way; also: the source files actives as falling curves though it sought activators and does not explain the sign; nearly all actives have a fitted effect of over 65% in size
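ClpP 10 microg/mL final, pH 8 Tris/KCl buffer with BSA, glycerol, Tween-20; compound pinned in; FRET-FV substrate; RT 20 min; Ex320/Em430; ΔFRET vs ADEP 5.8 microM, DMSO, no enzyme.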
miR-21 reporter: raises the signal of a miR-21 reporter | HeLa miR-21 FLuc reporter, luciferase, 48 h | Potency, µM (highest dose often 38.3 µM) | 340,000 tested, under 10 active | AID 2288; active = well fitted rising curve with a large enough effect; inconclusive = small, poorly fitted or top-dose-only effect; inactive = no such curve, though single readings can be large or run the other way;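 also: miR-21 action dims this reporter so a rising signal means less miR-21 action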
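HeLa cells stably expressing CMV-driven firefly luciferase with a downstream miR-21 binding sequence, endogenously expressing miR-21, were treated with titrations (up to about 40uM final) for 48 hours at 37 degree Celsius. Luciferase luminescence was read after lysis.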
Nrf2 block: blocks Nrf2 signaling; A549 ARE-Fluc reporter, luciferase luminescence, 18-24 h; Potency, µM (highest dose often 46 µM), actives largely listed as inhibitors; actives 2.1% (n = 360,000); AID 504444; also: nearly all actives have a fitted effect of over 60% in size
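Two sequential reads on A549 ARE_Fluc cells exposed to compound for 18-24 h: a CellTiter-Fluor fluorescence read for viability, then a luciferase luminescence read for Nrf2/ARE activity.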
TCR act: T cell receptor activation | primary human leukocytes, anti-CD3, IL-2 HTRF, 48 h | Potency, µM (top dose mostly 9.22 µM), hits mostly activators | 330,000 tested, under 10 active
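48 hr co-incubation of compounds, a-CD3 beads and primary human leukocytes; IL-2 quantified homogeneously by HTRF with anti-IL-2 K and d2 conjugates.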
A549 viability: A549 cytotoxicity, counter-screen for Nrf2 inhibitors; AID 504648; actives 0.16% (n = 390,000); Potency, µM (top dose mostly 46 µM), actives largely listed as inhibitors; A549 ARE-Fluc cells, CellTiter-Fluor viability, 18-24 h
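Cytotoxicity counterscreen: CellTiter-Fluor fluorescence was measured in A549 ARE_Fluc cells after 18-24 h of compound exposure in a concentration series. The subsequent BugLite luminescent read reports ARE-luciferase activity.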
Nrf2 ARE act: activates Nrf2 signaling; actives 0.31% (n = 410,000); Potency, µM (doses to about 46.1 µM), usual class: activators; AREc32 ARE-luciferase reporter (MCF7-derived line), luminescence, 24 h; also: nearly all actives have a fitted effect of over 65% in size
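Steps: seed AREc32_Fluc cells (1000/well, 5% FBS OPTI-MEM); incubate overnight at 37 deg C; add 23 nL compound; incubate 24 hr; add Steady-Glo; hold 30 min RT; read luminescence.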
A number is an active result; [ ] = dose if it differs, or a comment. Unless noted, calls follow the shape of the dose curve; as a rule, active = well fitted curve in the direction sought with a large enough effect; inconclusive = small, poorly fitted or top-dose-only effect, or another doubt; inactive = no such curve, though single readings can be large; an effect the other way counts as inactive or inconclusive.

Results for O=C(NCc1ccccc1F)c1ccc(S(=O)(=O)Nc2cccc(C(F)(F)F)c2)cc1 ?
ClpP mod: inactive; miR-21 reporter: inactive; Nrf2 block: inconclusive; TCR act: inactive; A549 viability: inactive; Nrf2 ARE act: inactive

How did O=C(CSc1nc(=O)[nH]c2c1CCC2)NCc1ccc(F)cc1 do in these assays?
ClpP mod: inactive; miR-21 reporter: inactive; A549 viability: inactive; Nrf2 ARE act: inactive

How did Cc1cc(OC(=O)c2ccccc2Cl)cc(=O)n1C do in these assays?
ClpP mod: inactive; miR-21 reporter: inactive; Nrf2 block: 8.2µM; TCR act: inactive; A549 viability: inactive; Nrf2 ARE act: inactive

What do the screens show for `O=C(Oc1ccc(N2C(=O)CCC2=O)cc1)c1ccccc1Cl`?
ClpP mod: inactive; miR-21 reporter: inactive; Nrf2 block: inconclusive; TCR act: inactive; A549 viability: inactive; Nrf2 ARE act: inactive

How did Cc1cccc(Nc2ccc(S(=O)(=O)N3CCOCC3)cc2[N+](=O)[O-])c1 do in these assays?
ClpP mod: inactive; Nrf2 block: inactive; TCR act: inactive; A549 viability: inactive; Nrf2 ARE act: inactive

What do the screens show for `CSc1cccc(Nc2ccc(S(=O)(=O)N3CCOCC3)cc2[N+](=O)[O-])c1`?
ClpP mod: inactive; Nrf2 block: 18µM; A549 viability: inactive; Nrf2 ARE act: inactive

How did Cc1ccc(C(=O)COC(=O)c2cccc([N+](=O)[O-])c2)s1 do in these assays?
ClpP mod: inactive; Nrf2 block: inactive; TCR act: inactive; A549 viability: inactive; Nrf2 ARE act: inactive

How did CC(C)C[C@@H]1COc2cccc(N3CCC[C@@H]3CO)c2S(=O)(=O)N1 do in these assays?
ClpP mod: inactive; Nrf2 ARE act: inactive

Results for COc1ccc(OC)c(-n2nnnc2SCC(=O)Nc2ccc3c(c2)OCCO3)c1 ?
ClpP mod: inactive; miR-21 reporter: inactive; Nrf2 block: inactive; TCR act: inactive; A549 viability: inactive; Nrf2 ARE act: inactive

Results for COc1ccc(OC)c(-n2nnnc2SCC(=O)Nc2ccc(C(=O)N3CCCCC3)cc2)c1 ?
ClpP mod: inactive; miR-21 reporter: inactive; Nrf2 block: 18µM; TCR act: inactive; A549 viability: inactive; Nrf2 ARE act: inactive

What do the screens show for `CCOc1cc(OCC)cc(C(=O)N2CCC[C@@H]2C(=O)N2CCC[C@@H]2C(=O)NCc2ccccc2Cl)c1`?
ClpP mod: inactive; Nrf2 ARE act: inactive

Results for O=C(CNC(=S)N(Cc1ccccc1)Cc1ccccc1F)NCc1ccc(Cl)cc1 ?
miR-21 reporter: inactive; Nrf2 block: 26µM; TCR act: inactive; A549 viability: inconclusive; Nrf2 ARE act: inactive

Results for NS(=O)(=O)c1ccc(S(=O)(=O)N2CCN(c3nc(-c4ccccc4)nc4ccccc34)CC2)cc1 ?
ClpP mod: inactive; Nrf2 block: 23µM; A549 viability: inactive

What do the screens show for `Cc1ccc(S(=O)(=O)N2CCN(c3nc(-c4ccccc4)nc4ccccc34)CC2)cc1`?
ClpP mod: inactive; Nrf2 block: inactive; A549 viability: inactive

How did CN1CCN(c2nc(-c3cccnc3)nc3ccccc23)CC1 do in these assays?
ClpP mod: 25µM; miR-21 reporter: inactive; Nrf2 block: inconclusive; A549 viability: inactive[1.84 µM]; Nrf2 ARE act: inactive

What do the screens show for `Cc1ccc(S(=O)(=O)N2CCN(c3nc(-c4cncn4C)nc4ccccc34)CC2)cc1`?
ClpP mod: 32µM; Nrf2 block: inactive; A549 viability: inactive

Results for Cc1nc(N2CCN(S(=O)(=O)c3ccccc3)CC2)c2cc(-c3ccccc3)sc2n1 ?
ClpP mod: 28µM; miR-21 reporter: inactive; Nrf2 block: inactive; TCR act: inactive; A549 viability: inactive; Nrf2 ARE act: inactive

How did CC(=O)c1cccc(NC(=O)CCS(=O)(=O)c2cc(Br)cc3c2N(C(=O)C2CC2)CC3)c1 do in these assays?
ClpP mod: inactive; miR-21 reporter: inactive; Nrf2 block: inactive; A549 viability: inactive; Nrf2 ARE act: inactive

What do the screens show for `O=C(CCC(=O)N1CCN(S(=O)(=O)c2ccc([N+](=O)[O-])cc2)CC1)N1CCOCC1`?
ClpP mod: inactive; Nrf2 block: inactive; TCR act: inactive; A549 viability: inactive; Nrf2 ARE act: inactive

What do the screens show for `O=C(CSc1nnc(Cc2cccs2)n1-c1ccccc1)Nc1ccc2c(c1)OCCO2`?
ClpP mod: inactive; miR-21 reporter: inactive; Nrf2 block: inactive; TCR act: inactive; A549 viability: inactive; Nrf2 ARE act: inactive

Results for Cc1ccc(-n2c(Cc3cccs3)nnc2SCC(=O)Nc2ccc(F)c(F)c2)cc1 ?
ClpP mod: inactive; miR-21 reporter: inactive; Nrf2 block: 23µM; TCR act: inactive; A549 viability: inactive; Nrf2 ARE act: inactive

Results for CC(C)N(Cc1ccccc1)S(=O)(=O)c1ccc(-n2cccn2)cc1 ?
ClpP mod: inactive; Nrf2 ARE act: inactive

How did COc1ccc(CCNC(=O)Cn2c(=O)nc(-c3ccccc3F)c3cc(Cl)ccc32)cc1OC do in these assays?
ClpP mod: inactive; miR-21 reporter: inactive; A549 viability: inconclusive; Nrf2 ARE act: inactive

What do the screens show for `COc1ccc(CNC(=O)Cn2c(=O)nc(-c3ccccc3F)c3cc(Cl)ccc32)cc1OC`?
ClpP mod: inactive; miR-21 reporter: inconclusive; A549 viability: 16µM; Nrf2 ARE act: inactive

How did CCN1C(=O)[C@@H]2[C@@H](c3ccc(SC4CCCCC4)cc3)N3CCC[C@@]3(C(=O)OC)[C@@H]2C1=O do in these assays?
ClpP mod: inactive; Nrf2 block: inactive; TCR act: inactive; A549 viability: inactive; Nrf2 ARE act: inactive

What do the screens show for `Cc1cc2c(s1)c1cnn(Cc3c(F)ccc(C)c3F)c(=O)c1n2C`?
Nrf2 block: inactive; A549 viability: inactive

What do the screens show for `COc1ccc(-c2nc3n(n2)C(c2ccc(OC)c(OC)c2)C(C(=O)Nc2cccnc2)=C(C)N3)cc1` (stereo unspecified)?
ClpP mod: inactive; miR-21 reporter: inactive; A549 viability: inactive; Nrf2 ARE act: inactive

Results for O=C(CNC(=O)c1ccc2cc[nH]c2c1)OC(C(=O)Nc1cc(C(F)(F)F)ccc1Cl)c1ccccc1 (stereo unspecified) ?
Nrf2 block: inactive; A549 viability: inactive

How did COc1cccc(NC(=O)CN(C)C(C)C(=O)Nc2ccc(C(C)=O)cc2)c1 (stereo unspecified) do in these assays?
ClpP mod: inactive; miR-21 reporter: inactive; Nrf2 block: inactive; TCR act: inactive; A549 viability: inactive; Nrf2 ARE act: inactive
